{"sequences": {"note": "Protein sequences, listed by entry. Tags and fused reporters are not part of them. Residues count along the entry.", "UniProt P21397, whole entry": "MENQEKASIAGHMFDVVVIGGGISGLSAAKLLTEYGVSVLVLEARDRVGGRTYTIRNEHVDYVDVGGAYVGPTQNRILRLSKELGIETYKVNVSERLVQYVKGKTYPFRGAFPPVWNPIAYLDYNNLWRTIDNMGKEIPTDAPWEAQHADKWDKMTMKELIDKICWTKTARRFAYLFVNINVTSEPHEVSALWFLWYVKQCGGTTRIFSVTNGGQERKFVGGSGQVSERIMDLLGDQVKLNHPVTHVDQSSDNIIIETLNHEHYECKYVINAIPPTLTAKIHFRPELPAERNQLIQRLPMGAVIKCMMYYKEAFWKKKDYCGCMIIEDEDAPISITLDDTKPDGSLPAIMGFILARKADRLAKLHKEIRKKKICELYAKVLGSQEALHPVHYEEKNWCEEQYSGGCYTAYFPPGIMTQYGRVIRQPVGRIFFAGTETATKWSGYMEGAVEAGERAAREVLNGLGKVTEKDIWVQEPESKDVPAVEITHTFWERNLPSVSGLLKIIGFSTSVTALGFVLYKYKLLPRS", "UniProt P27338, 2-520 limits assumed": "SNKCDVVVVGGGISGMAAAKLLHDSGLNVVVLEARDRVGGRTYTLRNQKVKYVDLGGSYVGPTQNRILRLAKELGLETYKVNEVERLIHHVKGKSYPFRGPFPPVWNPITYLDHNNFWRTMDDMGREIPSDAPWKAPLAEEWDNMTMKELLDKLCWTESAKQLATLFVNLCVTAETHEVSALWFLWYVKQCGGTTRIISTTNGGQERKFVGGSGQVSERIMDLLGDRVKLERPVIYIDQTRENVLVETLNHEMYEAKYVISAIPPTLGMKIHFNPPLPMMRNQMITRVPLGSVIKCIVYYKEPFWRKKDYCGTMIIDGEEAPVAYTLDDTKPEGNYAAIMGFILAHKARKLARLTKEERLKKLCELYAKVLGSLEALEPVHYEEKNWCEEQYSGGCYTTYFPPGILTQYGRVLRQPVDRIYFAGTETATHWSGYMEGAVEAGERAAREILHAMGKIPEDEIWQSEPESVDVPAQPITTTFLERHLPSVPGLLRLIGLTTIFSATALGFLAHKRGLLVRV"}, "source": "BindingDB's records for 14698188", "target": "Amine oxidase [flavin-containing] A/B (Homo sapiens, UniProt P21397+P27338)", "test": "ChEBML_220586", "method": "Displacement of [3H]2-BFI (1 nM) from imidazoline receptor I-2 in human brain", "data": [{"smiles": "c1ccc2c(c1)OCC(C1=NCCN1)O2", "note": "(stereo unspecified)", "values": [{"measurement": "Ki", "value": 28, "unit": "nM"}]}]}
